The source of these data is patent publication US12624173B2, “Biodegradable polymeric compositions, methods of preparation and uses thereof” (B.G. NEGEV TECHNOLOGIES AND APPLICATIONS LTD., AT …, priority 2019, dated 2026).

This series is described as follows: Insulin distribution in brain and plasma 1 h after intranasal, iv and sc administration (ELISA). The series is classed as in vivo. Conditions: rat, 36 μg/kg; for B/P ratio (insulin) / Brain Level (insulin) / Plasma level (insulin): 1 h after administration; for Brain Level (insulin) / Plasma level (insulin): ELISA. As for the experimental part: Formulation INS-01 was used for intranasal administration. The administered dose used in each animal was 28 μg INS/kg body weight. The applied volume was approximately 15 μL/nostril. For intravenous (iv) and subcutaneous (sc) administrations, a solution of insulin for injection was prepared by dissolving human insulin in a sterile saline solution to obtain a concentration of 90 μg/ml. A volume of 0.1 ml of the solution (9 μg dose, i.e. 36 μg/kg) was injected into the tail vein of a sedated animal, or under the loose skin over the neck. […] After 60 minutes from administration, the animals were euthanized by CO2 aspiration.
(In an ELISA, binding on a coated surface is turned into a signal by an enzyme label.)

Where [1] appears, read: IV injection of insulin solution.
The mark [2] stands for this setting: SC administration of insulin solution.

Consider insulin, for which the “insulin brain level (mean)” value (1 h after iv administration) was 1.87 ng/g. Besides, under “1 h after sc administration”, the “insulin brain level (mean)” value stood at 3.52 ng/g. Besides, under setting [1], the “B/P ratio (insulin)” value amounted to 0.41, the “Brain Level (insulin)” value is reported as 1.87(±1.08) ng/g and the “Plasma level (insulin)” value is 4.56 (±1.60) ng/ml. In addition, under setting [2], the “B/P ratio (insulin)” value is on record as 1.33, the “Brain Level (insulin)” value is recorded as 3.52(±0.40) ng/g and the “Plasma level (insulin)” value was 2.65 (±0.16) ng/ml.
